Where “and” joins values, the source holds several entries; their conditions need not be identical. Identical values can stand only once. The entries are a selection whose mix differs from that of the whole data set. Records with an inconclusive call do not appear. Calls of active or inactive are those of the source. Calls come from the whole dose curve; as a rule, active = well fitted cell-killing curve with a large enough effect in the repeat runs; inconclusive = weak or mixed curves, or effect the other way; inactive = flat fitted curve, though single readings scatter.
Assay: Nuclear factor erythroid 2-related factor 2/antioxidant responsive element (Nrf2/ARE) small molecule agonists: qHTS cell viability counter screen in human keratinocytes (AID 1919968); note: nearly all actives have a fitted effect of over 55% in size
Details: KeratinoSens HaCaT ARE cells viability, CellTiter-Fluor, 24 h; at 42.5 µM (top of the series)
Excerpt: U.S. Tox21 Program National Center for Advancing Translational Sciences [NCATS] Division of Preclinical Innovation [DPI] U.S. Environmental Protection Agency [EPA] National Institutes of Environmental Health Sciences [NIEHS] National Toxicology Program [NTP] U.S. Food and Drug Administration [FDA] Tox21 Assay Overview: Oxidative stress has been implicated in the pathogenesis of a variety of diseases ranging from cancer to neurodegeneration. The antioxidant response element (ARE) signaling pathway plays an important role in the amelioration of oxidative stress. The KeratinoSens (Givaudan, Switzerland) is an in vitro test method which quantifies luciferase induction as a measure of activation of Keap1-Nrf2-antioxidationt/electrophile response element (ARE) dependant pathway in HaCaT human keratinocytes stably transfected with a selectable plasmid. The KeratinoSens assay is a cell-based assay with a reporter cell line to detect potential skin sensitizers by their ability to induce the Nrf2/ARE-response. The activation of the report gene under culture conditions can be detected by ONE-Glo Luciferase Assay System (Promega, Madison, WI). This cell line has been used to screen the Tox21 10K compound library to identify agonists that induce oxidative stress. The cytotoxicity of the Tox21 compound library against the KS-ARE cell line was tested in parallel by measuring the cell viability using CellTiter- Fluor assay system (Promega, Madison, WI) in the same wells.
Tox21 Assay Protocol Summary: HaCaT derived cell line KeratinoSens were dispensed at 1,500 cells/5uL/well in 1536-well white wall/solid bottom plates using a Multidrop Combi (ThermoFisher Scientific, Waltham, MA) dispenser. After the assay plates were incubated at 37 C/5% CO2 for 5 h, 23 nL of compounds dissolved in DMSO, positive controls or DMSO only was transferred to the assay plate by a pintool workstation (Kalypsys, San Diego, CA). The plates were incubated at 37 C/5% CO2 for 23 h, followed by addition of 1uL/well of CellTiter-Fluor reagent into the assay plates using a Flying Reagent Dispenser (Aurora Discovery, San Diego, CA) for cell viability readout that measures cytotoxicity. After 1 h incubation at 37 C/5% CO2 the fluorescence intensity was measured using a ViewLux (PerkinElmer, Shelton, CT) plate reader.
% is set by controls: 0 for no effect and ±100 for the full control effect.

| Structure (SMILES) | activity change, negative = cytotoxicity |
| --- | --- |
| OCCSCCO | inactive: -0.248% |

Same assay, conditions: KeratinoSens HaCaT ARE cells viability, CellTiter-Fluor, 24 h; at 92.4 µM (top of the series)

| Structure (SMILES) | activity change, negative = cytotoxicity |
| --- | --- |
| OCCSCCO | inactive: -1.4% |

Same assay, conditions: KeratinoSens HaCaT ARE cells viability, CellTiter-Fluor, 24 h; at 92.4 µM (top of the series) unless noted

| Structure (SMILES) | activity change, negative = cytotoxicity |
| --- | --- |
| CCOP(=O)(CC)Oc1ccc([N+](=O)[O-])cc1 (stereo unspecified) | inactive: 7.54% [at 42.5 µM] |
| Cc1c([N+](=O)[O-])cccc1[N+](=O)[O-] | inactive: 1.95% and inactive: 7.53% |
| Cc1cccc([N+](=O)[O-])c1[N+](=O)[O-] | inactive: 11.7% [at 42.5 µM] |
| Cc1ccc([N+](=O)[O-])c([N+](=O)[O-])c1 | inactive: 1.72% |
| COc1ccc([N+](=O)[O-])cc1[N+](=O)[O-] | inactive: 4.97% |
| O=[N+]([O-])c1cccc([N+](=O)[O-])c1 | inactive: 0% |
| CCOP(=O)(CC)OCC | inactive: -2.06% |
| CCN(CC)CCCl | inactive: -6.47% |
| O=[N+]([O-])[O-].[NH4+] | inactive: 0.803% and inactive: -4.96% |
| N=C(N)N[N+](=O)[O-] | inactive: 1.9% |
| Cc1ccc([N+](=O)[O-])cc1[N+](=O)[O-] | inactive: 0.67% and inactive: -1.39% |
| CC(C)N(CCO)C(C)C | inactive: 2.35% |
| O=[N+]([O-])OCC(CO[N+](=O)[O-])(CO[N+](=O)[O-])CO[N+](=O)[O-] | inactive: 1.72% |
| CP(=O)(O)OCCC[Si](O)(O)O | inactive: -0.548% |
| C/C1=C2N=C(/C=C3N=C(/C(C)=C4\[N-][C@@](C)([C@@H]5N=C1[C@](C)(CCC(=O)NC[C@@H](C)OP(=O)([O-])O[C@H]1[C@@H](O)[C@@H](n6cnc7cc(C)c(C)cc76)O[C@@H]1CO)[C@H]5CC(N)=O)[C@@](C)(CC(N)=O)[C@@H]4CCC(N)=O)[C@@](C)(CC(N)=O)[C@@H]\3CCC(N)=O)C(C)(C)[C@@H]/2CCC(N)=O.[C-]#N.[Co+3] | inactive: -19.3% [at 42.5 µM] |
| COP(C)(=O)OC | inactive: 3.02% and inactive: 0.137% |
| [NH4+].[O-][Cl+3]([O-])([O-])[O-] | inactive: 2.11% and inactive: -0.316% |
| N#CBr | inactive: -3.33% |
| CN(C)CCCl | inactive: -3.76% |
